Paper PMC10001230, “A Role for the V0 Sector of the V-ATPase in Neuroexocytosis: Exogenous V0d Blocks Complexin and SNARE Interactions with V0c” (Cells, 2023)

Target: T1, His6-T7-HSV tagged full-length V0c-subunit (rat, UniProt P63081)
T1 construct: V-ATPase V0 sector subunit c (V0c), full length; also called HSV-V0c; 6His-V0c; source: E. coli OverExpress C43(DE3), membranes solubilized in 2% FosCholine-12, purified (Ni-NTA)
Experiment: ELISA; competition: His-VAMP2 immobilized; V0c 20 nM alone or with t-SNARE dimer (1 µM), complexin (0.2 µM) or both; with 1 µM GST or GST-V0d1; detected with anti-HSV
Conditions: both partners purified

B1: His6-tagged Vamp ([…]) (domain or fragment)
chain: not shown
notes: VAMP2/synaptobrevin 2 without the transmembrane domain, […]; also called VAMP2; His-VAMP2; source: E. coli BL21, purified; also co-expressed in BL21 with SNAP25 and syntaxin 1 (1-265)
binding result: binds
